Where “and” joins values, the source holds several entries; their conditions need not be identical. Equal entries are not always repeated. Inconclusive results and toxic doses are left out.
Test system: L1210 leukemia ip in BDF1 mice, survival T/C
Assay: NCI In Vivo Anticancer Drug Screen. Data for tumor model L1210 Leukemia (intraperitoneal) in B6D2F1 (BDF1) mice
Settings: higher = longer survival

For `CN(Cc1cnc2nc(N)nc(N)c2n1)c1ccc(C(=O)N[C@@H](CCC(=O)O)C(=O)O)cc1`, the T/C (endpoint: mean survival time, dose: 0.04 mg/kg/injection, schedule: Q01DX Z (ip), vehicle: saline) was 106 % of control, the T/C (endpoint: mean survival time, dose: 0.05 mg/kg/injection, schedule: Q03HX008 (ip), vehicle: sodium bicarbonate) was 103 % of control and the T/C (endpoint: mean survival time, dose: 0.05 mg/kg/injection, schedule: Q## X008 (other), vehicle: sodium bicarbonate) was 103 % of control. For the same compound, the T/C (endpoint: mean survival time, dose: 0.13 mg/kg/injection, schedule: Q03HX008 (ip), vehicle: other) was 103 % of control, the T/C (endpoint: mean survival time, dose: 0.25 mg/kg/injection, schedule: Q01DX Z (sc), vehicle: saline) was 121 % of control and the T/C (endpoint: mean survival time, dose: 0.49 mg/kg/injection, schedule: Q03HX002 (ip), vehicle: other) was 103 % of control. The T/C (endpoint: mean survival time, dose: 0.49 mg/kg/injection, schedule: Q03HX007 (ip), vehicle: other) was 103 % of control, the T/C (endpoint: mean survival time, dose: 0.73 mg/kg/injection, schedule: Q03HX008 (ip), vehicle: other) was 121 % of control and the T/C (endpoint: mean survival time, dose: 0.75 mg/kg/injection, schedule: Q## X018 (ip), vehicle: other) was 114 % of control. For the same compound, the T/C (endpoint: mean survival time, dose: 0.9 mg/kg/injection, schedule: Q04DX003 (ip), vehicle: other) was 106 % of control, the T/C (endpoint: mean survival time, dose: 1.0 mg/kg/injection, schedule: Q01DX001 (ip), vehicle: saline) was 103 % of control and the T/C (endpoint: mean survival time, dose: 1.0 mg/kg/injection, schedule: Q01DX006 (iv), vehicle: saline) was 121 % of control. The T/C (endpoint: mean survival time, dose: 1.0 mg/kg/injection, schedule: Q01DX009 (oral), vehicle: other) was 114 % of control, the T/C (endpoint: mean survival time, dose: 1.0 mg/kg/injection, schedule: Q01DX Z (ip), vehicle: other) was 211 % of control and the T/C (endpoint: mean survival time, dose: 1.08 mg/kg/injection, schedule: Q01DX009 (ip), vehicle: sodium bicarbonate) was 172 % of control. For the same compound, the T/C (endpoint: mean survival time, dose: 1.08 mg/kg/injection, schedule: Q01DX Z (sc), vehicle: other) was 172 % of control, the T/C (endpoint: mean survival time, dose: 1.1 mg/kg/injection, schedule: Q03HX004 (ip), vehicle: other) was 106 % of control and the T/C (endpoint: mean survival time, dose: 1.5 mg/kg/injection, schedule: Q01DX015 (ip), vehicle: carboxymethylcellulose (CMC)) was 216 % of control. For the same compound, the T/C (endpoint: mean survival time, dose: 1.5 mg/kg/injection, schedule: Q01DX Z (ip), vehicle: other) was 211 % of control, the T/C (endpoint: mean survival time, dose: 1.62 mg/kg/injection, schedule: Q01DX001 (ip), vehicle: other) was 106 % of control and the T/C (endpoint: mean survival time, dose: 1.87 mg/kg/injection, schedule: Q01DX015 (ip), vehicle: water) was 216 % of control. The T/C (endpoint: mean survival time, dose: 2.0 mg/kg/injection, schedule: Q01DX009 (ip), vehicle: sodium bicarbonate) was 162 % of control, the T/C (endpoint: mean survival time, dose: 2.16 mg/kg/injection, schedule: Q## X032 (ip), vehicle: water) was 162 % of control and the T/C (endpoint: mean survival time, dose: 2.25 mg/kg/injection, schedule: Q01DX015 (ip), vehicle: water) was 211 % of control. For the same compound, the T/C (endpoint: mean survival time, dose: 2.82 mg/kg/injection, schedule: Q02DX005 (ip), vehicle: other) was 216 % of control, the T/C (endpoint: mean survival time, dose: 3.0 mg/kg/injection, schedule: Q01DX009 (ip), vehicle: saline + Tween-80 + alkali) was 103 % of control and the T/C (endpoint: mean survival time, dose: 3.0 mg/kg/injection, schedule: Q01DX009 (ip), vehicle: water) was 211 % of control. For the same compound, the T/C (endpoint: mean survival time, dose: 3.0 mg/kg/injection, schedule: Q01DX017 (ip), vehicle: other) was 216 % of control, the T/C (endpoint: mean survival time, dose: 3.38 mg/kg/injection, schedule: Q01DX Z (ip), vehicle: carboxymethylcellulose (CMC)) was 151 % of control and the T/C (endpoint: mean survival time, dose: 5.3 mg/kg/injection, schedule: Q01DX007 (ip), vehicle: other) was 153 % of control. The T/C (endpoint: mean survival time, dose: 6.0 mg/kg/injection, schedule: Q01DX003 (ip), vehicle: other) was 172 % of control, the T/C (endpoint: mean survival time, dose: 6.0 mg/kg/injection, schedule: Q02DX008 (ip), vehicle: water) was 211 % of control and the T/C (endpoint: mean survival time, dose: 6.0 mg/kg/injection, schedule: Q03HX007 (ip), vehicle: other) was 106 % of control. For the same compound, the T/C (endpoint: mean survival time, dose: 7.0 mg/kg/injection, schedule: Q07DX003 (ip), vehicle: saline) was 121 % of control, the T/C (endpoint: mean survival time, dose: 8.0 mg/kg/injection, schedule: Q01DX Z (im), vehicle: saline) was 153 % of control and the T/C (endpoint: mean survival time, dose: 12.0 mg/kg/injection, schedule: Q03DX006 (ip), vehicle: saline) was 172 % of control. The T/C (endpoint: mean survival time, dose: 13.0 mg/kg/injection, schedule: Q03HX003 (ip), vehicle: other) was 153 % of control, the T/C (endpoint: mean survival time, dose: 13.5 mg/kg/injection, schedule: Q## X008 (ip), vehicle: other) was 106 % of control and the T/C (endpoint: mean survival time, dose: 15.0 mg/kg/injection, schedule: Q04DX004 (ip), vehicle: sodium bicarbonate) was 172 % of control. The T/C (endpoint: mean survival time, dose: 16.0 mg/kg/injection, schedule: Q08DX002 (ip), vehicle: other) was 121 % of control, the T/C (endpoint: mean survival time, dose: 18.0 mg/kg/injection, schedule: Q## X004 (ip), vehicle: water) was 162 % of control and the T/C (endpoint: mean survival time, dose: 20.0 mg/kg/injection, schedule: Q01DX001 (ip), vehicle: other) was 121 % of control. The T/C (endpoint: mean survival time, dose: 20.0 mg/kg/injection, schedule: Q04DX003 (ip), vehicle: sodium bicarbonate) was 114 % of control, the T/C (endpoint: mean survival time, dose: 20.0 mg/kg/injection, schedule: Q12HX003 (ip), vehicle: other) was 106 % of control and the T/C (endpoint: mean survival time, dose: 24.0 mg/kg/injection, schedule: Q03DX006 (ip), vehicle: saline) was 211 % of control. For the same compound, the T/C (endpoint: mean survival time, dose: 30.0 mg/kg/injection, schedule: Q01DX002 (ip), vehicle: other) was 153 % of control, the T/C (endpoint: mean survival time, dose: 35.0 mg/kg/injection, schedule: Q## X004 (ip), vehicle: water) was 162 % of control and the T/C (endpoint: mean survival time, dose: 39.0 mg/kg/injection, schedule: Q01DX001 (ip), vehicle: water) was 151 % of control. The T/C (endpoint: mean survival time, dose: 45.0 mg/kg/injection, schedule: Q04DX003 (ip), vehicle: other) was 153 % of control, the T/C (endpoint: mean survival time, dose: 45.0 mg/kg/injection, schedule: Q04DX004 (ip), vehicle: other) was 153 % of control and the T/C (endpoint: mean survival time, dose: 58.0 mg/kg/injection, schedule: Q01DX001 (ip), vehicle: water) was 153 % of control. The T/C (endpoint: mean survival time, dose: 60.0 mg/kg/injection, schedule: Q04DX004 (ip), vehicle: other) was 162 % of control, the T/C (endpoint: mean survival time, dose: 64.0 mg/kg/injection, schedule: Q01DX001 (ip), vehicle: other) was 121 % of control and the T/C (endpoint: mean survival time, dose: 64.0 mg/kg/injection, schedule: Q01DX001 (oral), vehicle: other) was 103 % of control. The T/C (endpoint: mean survival time, dose: 75.0 mg/kg/injection, schedule: Q## X004 (ip), vehicle: water) was 216 % of control, the T/C (endpoint: mean survival time, dose: 100.0 mg/kg/injection, schedule: Q03HX002 (ip), vehicle: other) was 121 % of control and the T/C (endpoint: mean survival time, dose: 160.0 mg/kg/injection, schedule: Q01DX001 (ip), vehicle: saline) was 114 % of control. The T/C (endpoint: mean survival time, dose: 375.0 micrograms/kg/injection, schedule: Q01DX009 (ip), vehicle: sodium bicarbonate) was 114 % of control, the T/C (endpoint: mean survival time, dose: 750.0 micrograms/kg/injection, schedule: Q01DX009 (ip), vehicle: Klucel (hydroxypropylcellulose) (HPC)) was 153 % of control and the T/C (endpoint: mean survival time, dose: 1500.0 micrograms/kg/injection, schedule: Q01DX009 (ip), vehicle: Klucel (hydroxypropylcellulose) (HPC)) was 151 % of control. For the same compound, the T/C (endpoint: mean survival time, dose: 3000.0 micrograms/kg/injection, schedule: Q01DX009 (ip), vehicle: Klucel (hydroxypropylcellulose) (HPC)) was 151 % of control and 153 % of control, the T/C (endpoint: mean survival time, dose: 3000.0 micrograms/kg/injection, schedule: Q01DX009 (ip), vehicle: sodium bicarbonate) was 121 % of control and the T/C (endpoint: median survival time, dose: 0.39 mg/kg/injection, schedule: Q01DX009 (ip), vehicle: sodium bicarbonate) was 153 % of control. For the same compound, the T/C (endpoint: median survival time, dose: 0.75 mg/kg/injection, schedule: Q01DX017 (ip), vehicle: other) was 211 % of control, the T/C (endpoint: median survival time, dose: 1.08 mg/kg/injection, schedule: Q01DX009 (ip), vehicle: other) was 162 % of control and the T/C (endpoint: median survival time, dose: 2.5 mg/kg/injection, schedule: Q01DX009 (ip), vehicle: other) was 211 % of control. The T/C (endpoint: median survival time, dose: 3.0 mg/kg/injection, schedule: Q01DX033 (ip), vehicle: sodium bicarbonate) was 162 % of control and the T/C (endpoint: median survival time, dose: 50.0 mg/kg/injection, schedule: Q04DX003 (ip), vehicle: saline) was 172 % of control.
